Test results as given in patent publication US4497812A, “2-Amino-5-aminomethyl-2-oxazolines, compositions and use” (Societe Cortial, S.A., priority 1982, dated 1985).

Assay: in vivo
Settings: mouse, mice, read-out: Percentage of mortality
Experimental: The toxicity was determined in mice for various ways of administraion.

NC1=NCC(CN2CCN(c3ccccc3)CC2)O1 (centres unmarked) [Example 11]
mortality (ip, intraperitoneally 200 mg/kg): 0%
mortality (po, orally 300 mg/kg): 0%

Where two headings read alike, the source gives them in different places.
